The values below come from ChEMBL document CHEMBL3797028, “Novel S1P1 receptor agonists - Part 4: Alkylaminomethyl substituted aryl head groups” (Eur J Med Chem, 2016).

Sequences of proteins named here, by UniProt entry; tags and fusion partners are left off.
UniProt P21453, whole entry: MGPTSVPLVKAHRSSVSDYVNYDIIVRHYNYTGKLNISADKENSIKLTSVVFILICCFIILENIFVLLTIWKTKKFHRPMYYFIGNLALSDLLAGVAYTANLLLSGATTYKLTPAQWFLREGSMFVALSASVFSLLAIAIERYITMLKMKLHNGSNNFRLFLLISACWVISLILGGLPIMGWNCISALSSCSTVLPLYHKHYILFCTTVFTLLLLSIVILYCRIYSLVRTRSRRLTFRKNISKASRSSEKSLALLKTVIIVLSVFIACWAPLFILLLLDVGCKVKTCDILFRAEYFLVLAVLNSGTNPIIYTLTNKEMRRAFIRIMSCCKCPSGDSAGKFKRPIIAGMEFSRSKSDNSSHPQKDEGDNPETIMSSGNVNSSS

The assay deals with Sphingosine 1-phosphate receptor 1 (Homo sapiens, UniProt P21453). Kind of assay: Agonist activity at human recombinant S1PR1 expressed in CHO cell membranes assessed as [35S]GTPgammaS binding preincubated for 30 mins followed by [35S]GTPgammaS addition measured after 1 hr by topcount analysis.

A word on the EC50: it is the concentration needed to bring the measured effect to its halfway point. Turning to `CCc1cc(-c2noc(-c3cc(C)cc(CN(C)C)c3)n2)cc(C)c1OC[C@@H](O)CNC(=O)CO`, the concentration giving a half-maximal response (EC50) came out at 8 nM.
In the case of `CCc1cc(-c2noc(-c3cc(C)c(CN(C)C)s3)n2)cc(C)c1OC[C@@H](O)CNC(=O)CO` it was 0.9 nM.
